This data set in a line: distribution coefficient (log P), measured between n-octanol and water. In kind it is physicochemical. The note with it: experimental value. As for the experimental part: On the other hand, the measured value of the distribution coefficient is calculated by the following equation using a concentration of a medicinal ingredient dissolved in each of two phases of water and n-octanol, which is obtained by a conventional quantitative method such as absorption spectrophotometry, gas chromatography or liquid chromatography:
Log P=Log [(concentration of the medicinal ingredient in n-octanol phase)/(concentration of the medicinal ingredient in water phase)

For the substance famotidine, the “logP Observed” value is −0.82.

For the origin of these results see US20160213619A1, “INTRAORALLY DISINTEGRABLE TABLET COMPRISING DISINTEGRABLE GRANULAR COMPOSITION” (DAICEL CORPORATION, priority 2013, published 2016).
